Reported vapor pressure values for industrial, environmental and drug-like chemicals

Values as listed in the OPERA 2.9 repository of K. Mansouri.

Vapor pressures (log10 mmHg) refer to near room temperature, 15 to 30 °C; higher is more volatile.
"via" names the databases from which the curators took the value.

SMILES | log vapor pressure (log10 mmHg) | via
CO[Si](OC)(OC)C1CCCC1 | 1.111 | eChemPortal
Clc1cc(Cl)cc(-c2c(Cl)cccc2Cl)c1 | -3.975 | OCHEM
CC(=O)[O-].CCN(CC)c1ccc([C+](c2ccc(N(CC)CC)cc2)c2ccc(N(CC)CC)cc2)cc1 | -5.592 | eChemPortal
CC(C)CCOCCc1ccccc1 | -1.604 | eChemPortal
C#CC(C)O (racemic) | 0.916 | eChemPortal
NC1CCCCC1N (stereo unspecified) | -0.437 | eChemPortal
CCCCCCCCN(C)C | -0.108 | eChemPortal
O=C(O)COC(=O)c1cc(Oc2ccc(C(F)(F)F)cc2Cl)ccc1[N+](=O)[O-] | -9.4 | OCHEM
C=CC(C)(CCC=C(C)C)OC(=O)CC (stereo unspecified) | -1.259 | eChemPortal
O=C(Cl)c1ccc2c(c1)C(=O)OC2=O | -3.771 | eChemPortal
CC(C)COC(=O)/C=C\C(=O)OCC(C)C | -1.385 | eChemPortal
C=CC(C)=CCC=C(C)C | 0.219 | eChemPortal
C[N@@](CCO)CCCN | -1.824 | eChemPortal
CCCCCCCC/C=C\CCCCCCCC(=O)NCC(C)O (stereo partly drawn) | -7.888 | eChemPortal
C=CC(C)C(O)c1ccc(Cl)cc1 (stereo unspecified) | -2.686 | eChemPortal
Cc1ncc(CN)c(N)n1 | -3.955 | eChemPortal
CC1CC(=O)CC(C)(C)C1 (stereo unspecified) | -0.347 | eChemPortal
CCCCCN(CCCCC)C(=S)[S-].CCCCCN(CCCCC)C(=S)[S-].[Zn+2] | -12.33 | eChemPortal
O=Cc1ccc(Cl)cc1 | -0.171 | eChemPortal
CC/C=C\CCOC(=O)C/C=C\CC | -1.534 | eChemPortal
CCOC(F)(C(F)(F)C(F)(F)C(F)(F)F)C(F)(C(F)(F)F)C(F)(F)F (stereo unspecified) | 0.832 | eChemPortal
Clc1cccc(-c2c(Cl)c(Cl)c(Cl)c(Cl)c2Cl)c1 | -5.005 | OCHEM
CCOC(=O)COC(=O)c1ccccc1C(=O)OCC | -5.103 | eChemPortal
COC(=O)CCN(CCC(=O)OC)c1ccc(N=Nc2c(Cl)cc([N+](=O)[O-])cc2Br)cc1 | -6.393 | eChemPortal
CCCCCCCC/C=C\CCCCCCCC(=O)N(CCO)CCO | -6.212 | eChemPortal
CCOC(F)(F)C(F)(F)C(F)(F)C(F)(F)F | 2.008 | ICF
Nc1c(OCCOC(=O)Oc2ccccc2)cc(O)c2c1C(=O)c1ccccc1C2=O | -12.46 | eChemPortal
CO[Si](OC)(C1CCCC1)C1CCCC1 | -1.523 | eChemPortal
C/C=C/C=C/C | 1.932 | OCHEM
CCN(CC)CC.Cc1ccc(S(=O)(=O)O)cc1 | -4.736 | eChemPortal
Cc1ccc(N(CC(C)O)CC(C)O)cc1 (stereo unspecified) | -5.577 | eChemPortal
COC(=O)C(N)C(C)O (stereo unspecified) | -2.046 | eChemPortal
CN(C)CCOCCO | -1.084 | eChemPortal
Cc1coc2ccc(O)cc12 | -3.185 | eChemPortal
N=C1NC(=N)c2ccccc21 | -4.647 | eChemPortal
CCCC(C)=NO[Si](ON=C(C)CCC)(ON=C(C)CCC)ON=C(C)CCC | -5.897 | eChemPortal
C=CC(=O)OCCOCC(CC)CCCC (stereo unspecified) | -0.362 | eChemPortal
CCCCCCCCCCCCC1CC(=O)N(C2CC(C)(C)NC(C)(C)C2)C1=O (stereo unspecified) | -6.374 | eChemPortal
c1ccc2scnc2c1 | -1.854 | OCHEM, OFMPub
CC(=O)O.CCCCCCCCCCCCCCCC(=O)O.CCCCCCCCCCCCCCCCCC(=O)O.OCC1OC(OC2(CO)OC(CO)C(O)C2O)C(O)C(O)C1O (stereo unspecified) | -4.745 | eChemPortal
COc1c(O)c(OC)c(Cl)c(C=O)c1Cl | -3.726 | OCHEM
CC(C)CCCC(C)CCO (stereo unspecified) | -1.967 | eChemPortal
C=C(C)C(=O)OCCCOc1ccc(C(C)(C)c2ccc(OCCCOC(=O)C(=C)C)cc2)cc1 | -8.106 | eChemPortal
CCOC(F)(F)C(F)(F)C(F)(F)F | 2.424 | ICF
Clc1cc2ccccc2cc1Cl | -2.606 | OCHEM
Cc1ccc(S(=O)(=O)n2cc(-c3ncc(F)c(N[C@H]4C5CCC(CC5)[C@@H]4C(=O)O)n3)c3cc(F)cnc32)cc1 | -9.639 | eChemPortal
COCCC(=O)N(C)C | -0.247 | eChemPortal
C=CC(O)CCCCC (stereo unspecified) | -0.648 | eChemPortal
OCCN(CCO)c1ccccc1 | -5.254 | eChemPortal
CCN(CC)CCN | 0.602 | eChemPortal
Cc1cn2[nH]c(=N)nc2nc1O | -7.426 | eChemPortal
CCCCCCCCCCCCCCCCCCOC(=O)CCc1cc(C(C)(C)C)c(O)c(C(C)(C)C)c1 | -8.721 | eChemPortal

Repeated from above, the 4 entries with the highest log vapor pressure:

SMILES | log vapor pressure (log10 mmHg) | via
CCOC(F)(F)C(F)(F)C(F)(F)F | 2.424 | ICF
CCOC(F)(F)C(F)(F)C(F)(F)C(F)(F)F | 2.008 | ICF
C/C=C/C=C/C | 1.932 | OCHEM
CO[Si](OC)(OC)C1CCCC1 | 1.111 | eChemPortal

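The OPERA project collected these measurements from public sources as training and test data for property models. One number stands for a compound and property, with no spread given. Conditions of the individual experiments are not part of the data. Where a salt, mixture or single isomer is drawn, the source does not say that exactly this form was tested. Some entries may be limits or estimates that an upstream database listed as plain numbers.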